Measurements from US20160318844A1, “PROSTACYCLIN COMPOUNDS, COMPOSITIONS AND METHODS OF USE THEREOF” (Insmed Incorporated, priority 2015, published 2016).

Experiments:
[1] = Particle size characterization of treprostinil compositions (QELS); type: physicochemical; settings: composition of Table 3 (squalane, Chol-PEG2k)
[2] = Treprostinil alkyl ester conversion to treprostinil in dog lung tissue homogenate; type: in vitro ADME; settings: 37° C.
Description: (§1) Treprostinil alkyl ester (C10-TR, C12-TR, C14-TR) conversion to treprostinil was also measured in the presence of rat, dog and monkey lung tissue homogenate at 37° C. Here, data were calculated based on fit of exponential increase to the maximum (experiments performed in duplicate). The results of this study are provided below in Table 2A and FIG. 37. […] In this experiment, treprostinil alkyl esters were incubated for 4 hours at a final concentration of 200 nM in 1 mL of tissue homogenate prepared in water and normalized to 10 mg/mL of protein.
(§2) C12-TR was incubated for 4 hours at a final concentration of 200 nM in 1 mL of tissue homogenate prepared in water and normalized to 10 mg/mL of protein. Both FIG. 37 experiments (eft and right graphs) were performed in duplicate and the lines represent nonlinear exponential regression assuming 1 phase decay. Table 2A. Rate of treprostinil alkyl ester conversion in the presence of rat, dog or monkey lung tissue homogenate.

[3] = Treprostinil alkyl ester conversion to treprostinil in monkey lung tissue homogenate; type: in vitro ADME; settings: 37° C.
Description: as §1, §2

[4] = Treprostinil alkyl ester conversion to treprostinil in rat lung tissue homogenate; type: in vitro ADME; settings: 37° C., 200 nM, 10 mg/mL of protein
Description: as §1, §2

Substance | average particle diameter [1] [nm] | Rate of treprostinil alkyl ester conversion [2] | Rate of treprostinil alkyl ester conversion [3] | Rate of treprostinil alkyl ester conversion [4]
treprostinil pentyl ester [Compound C5-TR] | 316 | – | – | –
treprostinil decyl ester [Compound C10-TR] | – | 10.5 nmOL/h * g of protein | 4.6 nmOL/h * g of protein | 7.3 nmOL/h * g of protein
